# Antibody variant affinities, Ab-14 light chain, assay B

From the AlphaSeq antibody data of Li et al. 2023 (doi:10.1038/s41467-023-39022-2), copy in the FLAb collection.

Target: peptide PDVDLGDISGINAS, taken from heptad repeat 2 (HR2) of SARS-CoV-2 spike.

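The starting antibody came from a phage panning campaign against this peptide. The variants were designed computationally from a first round of random CDR variants and then made and measured. Group labels follow the data file (Ctrl: baseline library sampled from a position-specific scoring matrix, with some repeated check sequences; GP: Gaussian process model; HC: hill climbing; Gen: genetic algorithm; Gibbs: Gibbs sampling; a sequence that several methods proposed may carry one label only). The assay is AlphaSeq: two haploid yeast populations carry antibody and antigen on their surface. After mating in shaken culture at 30 °C for 16 h, diploids were selected and their barcode pairs sequenced. Read counts were normalised to the haploid input and turned into Kd by a linear fit to BCL2-family pairs of known affinity, for each replicate. Each pool was mated in six replicate cultures.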

Parent scFv Ab-14: VH joined to VL by the linker GGGGSGGGGSGGGGS. Changes lie in the light chain CDRs alone.
VH: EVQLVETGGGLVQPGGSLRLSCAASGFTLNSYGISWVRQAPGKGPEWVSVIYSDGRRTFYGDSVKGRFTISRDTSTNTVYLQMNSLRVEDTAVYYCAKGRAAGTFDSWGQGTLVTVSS
VL: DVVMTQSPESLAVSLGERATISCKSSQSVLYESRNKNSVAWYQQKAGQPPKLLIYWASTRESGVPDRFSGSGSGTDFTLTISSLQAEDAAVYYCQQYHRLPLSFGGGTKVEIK

Positions count from residue 1 of the parent VL; S25F puts F in place of S.
This list holds designs with at most six substitutions.
Each Kd is an estimate from the mating assay, the geometric mean of the replicates in which the pair was seen; lower is stronger.
Where no diploid with the target was found in any replicate, the entry reads "nd": below detection, most likely a poor binder, though not proof of it.

* S25F+N35T+K36P+W56N [GP_HC]: 310 pM (6 of 6 replicates; controls 0 of 18)
* K24M+Y31K+S33A+K36L+W56Q+S103C [Ctrl]: 30 nM (6 of 6 replicates; controls 1 of 18)
* S25L+V29D+W56D+E61L [GP_Gen]: 380 pM (6 of 6 replicates; controls 1 of 18)
* Q27I+V29T+Y31E+W56E [GP_HC]: 2.0 nM (6 of 6 replicates; controls 0 of 18)
* K24M+R99G+P101W [Ctrl]: 940 nM (2 of 6 replicates; controls 0 of 18)
* S25L+N35T+W56N [GP_Gen]: 1.4 nM (6 of 6 replicates; controls 0 of 18)
* S25H+L30P [Ctrl]: 67 nM (6 of 6 replicates; controls 1 of 18)
* S25F+W56D+E61M [GP_Gen]: 470 pM (6 of 6 replicates; controls 1 of 18)
* Q27I+V29Y+R34E+W56E+T59Q [GP_HC]: 4.9 nM (6 of 6 replicates; controls 0 of 18)
* S26Q+E32A [Ctrl]: 350 nM (1 of 6 replicates; controls 0 of 18)
* S25L+V29M+W56H [GP_Gen]: 570 pM (6 of 6 replicates; controls 3 of 18)
* Q27V+V29D [Ctrl]: 32 nM (6 of 6 replicates; controls 1 of 18)
* S25F+L30E [Ctrl]: 6.4 nM (6 of 6 replicates; controls 1 of 18)
* N37S+W56A+A57D+S62N+H98V [Ctrl]: 24 nM (6 of 6 replicates; controls 0 of 18)
* S25V+V29W+R34G+N35T+W56N+T59S [GP_HC]: 1.3 nM (6 of 6 replicates; controls 2 of 18)
* S25L+S26P+S28Q+W56N [GP_Gen]: 1.0 nM (6 of 6 replicates; controls 4 of 18)
* S25F+S28P [Ctrl]: 11 nM (6 of 6 replicates; controls 1 of 18)
* Q27I+V29Y+R34M+W56N+E61M [GP_HC]: 770 pM (6 of 6 replicates; controls 1 of 18)
* S25L+S26Q+L30G+W56H [GP_Gen]: 790 pM (6 of 6 replicates; controls 0 of 18)
* S33D+N37R+S62R+Y97D [Ctrl]: nd (0 of 6 replicates; controls 0 of 18)
* S25L+W56N+E61L+S62K [GP_Gen]: 1.3 nM (6 of 6 replicates; controls 3 of 18)
* W56A+P101E [Ctrl]: nd (0 of 6 replicates; controls 1 of 18)
* V39I+S62A+Q96S [Ctrl]: 78 nM (1 of 6 replicates; controls 0 of 18)
* L30A+Y31L+K36A+W56D [GP_HC]: 670 pM (6 of 6 replicates; controls 1 of 18)
* S25F+S26Q+S28E+V29M+W56N+T59C [GP_Gibbs]: 1.4 nM (6 of 6 replicates; controls 1 of 18)
* S25L+S26H+W56E [GP_Gen]: 760 pM (6 of 6 replicates; controls 0 of 18)
* S26G+S28G+V29G+W56R [GP_HC]: 2.4 nM (6 of 6 replicates; controls 0 of 18)
* S26L+Q27W+R34N+W56H+S62D [GP_HC]: 19 nM (6 of 6 replicates; controls 1 of 18)
* S25L+S26E+V29Y+W56N+T59Q [GP_Gen]: 1.1 nM (6 of 6 replicates; controls 2 of 18)
* S25Q+K36C+W56S+Q96D [Ctrl]: 10 nM (6 of 6 replicates; controls 0 of 18)

The first 3 entries again:

* S25F+N35T+K36P+W56N [GP_HC] -> 310 pM (6 of 6 replicates; controls 0 of 18)
* K24M+Y31K+S33A+K36L+W56Q+S103C [Ctrl] -> 30 nM (6 of 6 replicates; controls 1 of 18)
* S25L+V29D+W56D+E61L [GP_Gen] -> 380 pM (6 of 6 replicates; controls 1 of 18)

The authors averaged sequences with at least three values out of six and counted those with two or fewer as poor binders.
As a blank, each scFv also met three strains without target: over all light chain designs, 4% of these pairings were detected, typically at 430 nM and seldom below 38 nM. The control count says in how many pairings with the empty strains this scFv gave a signal.
Values of this round are not directly comparable with the first-round values of the same sequences.